{"sequences": {"note": "Sequences of proteins named here, by UniProt entry; tags and fusion partners are left off. A change or cut given only in a name is not applied to a line headed by its entry.", "UniProt P25099, whole entry": "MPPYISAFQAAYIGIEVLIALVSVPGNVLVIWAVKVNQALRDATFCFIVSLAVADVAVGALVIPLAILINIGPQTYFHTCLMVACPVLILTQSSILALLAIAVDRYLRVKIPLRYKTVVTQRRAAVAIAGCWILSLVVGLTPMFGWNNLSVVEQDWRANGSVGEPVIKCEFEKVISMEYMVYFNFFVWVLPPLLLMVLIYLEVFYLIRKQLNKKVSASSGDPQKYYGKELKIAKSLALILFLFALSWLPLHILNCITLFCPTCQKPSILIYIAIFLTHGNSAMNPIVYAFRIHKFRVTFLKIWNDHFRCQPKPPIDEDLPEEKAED"}, "source": "patent US6545002B1", "about": "(dated 2003)", "key": {"[1]": {"molecular_target": "T1, human A2B receptors (hA2B) (Homo sapiens, UniProt P29275)", "T1 sequence (P29275 1-332)": "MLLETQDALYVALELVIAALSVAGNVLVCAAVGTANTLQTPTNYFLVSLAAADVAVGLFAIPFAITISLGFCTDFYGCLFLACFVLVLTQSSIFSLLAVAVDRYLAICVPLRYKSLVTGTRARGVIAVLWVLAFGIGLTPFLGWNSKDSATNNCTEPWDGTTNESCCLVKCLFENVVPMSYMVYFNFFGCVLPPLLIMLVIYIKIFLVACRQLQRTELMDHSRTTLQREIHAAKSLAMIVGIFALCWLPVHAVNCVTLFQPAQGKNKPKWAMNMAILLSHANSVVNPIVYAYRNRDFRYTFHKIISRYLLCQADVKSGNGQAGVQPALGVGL", "assay": "Radioligand binding ([125I]ABOPX / [3H]ZM241385) at human A2B receptors expressed in HEK-293 cells", "conditions": "read-out: Ki value at human A2B receptors"}, "rat A1 receptors (rA1)": {"molecular_target": "rat A1 receptors (rA1) (Rattus norvegicus, UniProt P25099)", "assay": "Displacement of [3H]R-PIA binding in rat brain (cerebral cortical) membranes", "conditions": "read-out: rA1 Ki or IC50; Table 3"}}}
{"smiles": "CCCn1c(=O)c2[nH]c(-c3ccc(OCC(=O)Nc4ccc(C#N)cc4)cc3)nc2n(CCC)c1=O", "note": "[Compound 27, 8-[4-[((4-Cyano)phenylcarbamoylmethyl)oxy]phenyl]-1,3-di-(n-propyl)xanthine]", "values": [{"measurement": "Ki", "setting": "[1]", "result": 0.00197, "unit": "µM"}]}
{"smiles": "CC(=O)c1ccccc1NC(=O)/C=C/c1ccc(-c2nc3c([nH]2)c(=O)n(Cc2ccccc2)c(=O)n3Cc2ccccc2)cc1", "note": "[Compound 37, 8-[4-(2-(2-Acetylphenyl)carbamoyl-trans-vinyl)phenyl]-1,3-dibenzylxanthine]", "values": [{"measurement": "Ki", "setting": "rat A1 receptors (rA1)", "result": 34.3, "unit": "µM"}]}
